Test results: ChEMBL document CHEMBL5726080, “Substituted piperidine compounds and their use as orexin receptor modulators” (2017)
pKi: −log10 of the molar value.

Assay: Receptor Radioligand Binding Studies: Human Embryonic Kidney 293 cells (HEK293) stably expressing rat orexin 1 receptor (Genebank accession number NM_001525) or Chinese ovary cells (CHO) stably expressing human orexin 1 receptor (Genebank accession number NM_001526) were grown to confluency in DMEM (Hyclone, cat #SH30022), 10% FBS, 1×Pen/Strep, 1× sodium pyruvate, 10 mM HEPES, 600 μg/mL G418 and DMEM/F12 (Gibco, Cat #11039), 10% FBS, 1×Pen/Strep, 600 μg/mL G418 media, respectively on 150 cm2 tissue culture plates, washed with 5 mM EDTA in PBS (HyClone Dulbecco's Phosphate Buffered Saline 1× with Calcium and Magnesium, Cat #SH30264.01, hereafter referred to simply as PBS) and scraped into 50 ml tubes. After centrifugation (2K×G, 5 min at 4° C.), the supernatant was aspirated and the pellets frozen and stored at −80° C. Cells were resuspended in PBS in the presence of 1 tablet of protease inhibitor cocktail (Roche, Cat. #11836145001) per 50 mL. Each cell pellet from a 15 cm plate was resuspended in 10 mL, stored on ice, and homogenized for 45 sec prior to addition to the reactions. […]

Question: With Cc1cnc(C(=O)N2CCC[C@@H](N(C)c3nc4ccccc4o3)[C@@H]2C)c(-n2nccn2)c1 (relative stereo) as the molecule, how does the pKi read?
Answer: 5.60
